Laboratory results from EP1903056A2, “HLA-A1, -A2 -A3, -A24, -B7, and -B44 tumor associated antigen peptides and compositions” (priority 2002, dated 2004).

Molecular target: HLA-A*2402 (Homo sapiens, UniProt P04439, D101N/D140Y/D185E/E176V/E190D/F33S/G103R/G107R/I119L/I121M/I306V/K335N/L105A/L180Q/L300P/N151K/N90K/Q86E/Q94H/R106L/R138H/R89G/T104I/T345S/V100E/W191G/Y123F)
Assay: Class I peptide-binding assay, A*2402
Details: A*2401, Table 19b, Her2/neu-derived A24 binders

Point of comparison: `CSCC[C@H](NC(=O)[C@@H](N)CCCNC(=N)N)C(=O)N[C@@H](C)C(=O)N[C@@H](CCCNC(=N)N)C(=O)N[C@@H](CC(=O)O)C(=O)N1CCC[C@H]1C(=O)N[C@@H](CCC(N)=O)C(=O)N[C@@H](CCCNC(=N)N)C(=O)N[C@@H](Cc1ccccc1)C(=O)O` [compound 311], IC50 3750 nM. Against it:
- CC(C)[C@H](NC(=O)[C@H](CC(=O)O)NC(=O)[C@H](CO)NC(=O)[C@H](CCC(N)=O)NC(=O)[C@H](Cc1c[nH]cn1)NC(=O)[C@@H](NC(=O)[C@H](Cc1ccccc1)NC(=O)[C@@H](N)CCCNC(=N)N)[C@@H](C)O)C(=O)N[C@@H](Cc1c[nH]c2ccccc12)C(=O)O [compound 299] — 3.4-fold lower, 1090 nM

Same assay, conditions: A*[…], Table 19a, CEA-derived A24 binders

Point of comparison: `CC(C)[C@H](NC(=O)[C@H](Cc1ccccc1)NC(=O)[C@H](CS)NC(=O)[C@H](C)NC(=O)[C@H](Cc1ccc(O)cc1)NC(=O)[C@@H](N)[C@@H](C)O)C(=O)N[C@@H](CO)C(=O)N[C@@H](CC(N)=O)C(=O)N[C@@H](Cc1ccccc1)C(=O)O` [compound 291], IC50 8.6 nM. Against it:
- CC[C@H](C)[C@H](NC(=O)[C@H](CO)NC(=O)[C@@H]1CCCN1C(=O)[C@H](CCCCN)NC(=O)[C@@H]1CCCN1C(=O)[C@H](CC(C)C)NC(=O)[C@H](CCC(=O)O)NC(=O)[C@@H]1CCCN1C(=O)[C@H](Cc1ccc(O)cc1)NC(=O)[C@@H](N)C(C)C)C(=O)O [compound 259] — 180-fold higher, 1520 nM
- CC(C)C[C@H](NC(=O)[C@H](CCC(=O)O)NC(=O)[C@@H]1CCCN1C(=O)[C@H](Cc1ccc(O)cc1)NC(=O)[C@@H](N)C(C)C)C(=O)N1CCC[C@H]1C(=O)N[C@@H](CCCCN)C(=O)N1CCC[C@H]1C(=O)N[C@@H](CO)C(=O)N[C@@H](Cc1ccccc1)C(=O)O [compound 260] — 12-fold higher, 106 nM
- CC(C)C[C@H](N)C(=O)N[C@@H](Cc1ccc(O)cc1)C(=O)N[C@@H](Cc1c[nH]c2ccccc12)C(=O)N[C@H](C(=O)N[C@@H](CC(N)=O)C(=O)N[C@@H](CC(N)=O)C(=O)N[C@@H](CCC(N)=O)C(=O)N[C@@H](CO)C(=O)N[C@@H](Cc1ccccc1)C(=O)O)C(C)C [compound 262] — 7.3-fold higher, 63 nM
- CC(C)C[C@H](N)C(=O)N[C@@H](Cc1ccc(O)cc1)C(=O)NCC(=O)N1CCC[C@H]1C(=O)N[C@@H](CC(=O)O)C(=O)N[C@@H](C)C(=O)N1CCC[C@H]1C(=O)N[C@H](C(=O)N[C@@H](Cc1ccccc1)C(=O)O)[C@@H](C)O [compound 264] — 7.3-fold higher, 63 nM
- CC(C)[C@H](N)C(=O)N[C@@H](Cc1ccc(O)cc1)C(=O)N[C@@H](C)C(=O)N[C@@H](CCC(=O)O)C(=O)N1CCC[C@H]1C(=O)N1CCC[C@H]1C(=O)N[C@@H](CCCCN)C(=O)N1CCC[C@H]1C(=O)N[C@@H](Cc1ccccc1)C(=O)N[C@@H](Cc1ccccc1)C(=O)O [compound 271] — 3.1-fold higher, 27 nM
- CC[C@H](C)[C@H](NC(=O)[C@H](CCCNC(=N)N)NC(=O)[C@H](Cc1c[nH]c2ccccc12)NC(=O)[C@H](CO)NC(=O)[C@H](Cc1ccc(O)cc1)NC(=O)[C@@H](N)CCC(N)=O)C(=O)N[C@@H](CC(N)=O)C(=O)NCC(=O)N[C@@H](Cc1ccccc1)C(=O)O [compound 289] — 13-fold higher, 109 nM

Same assay, conditions: A*[…], Table 19c, Mage2/3-derived A24 binders

Point of comparison: `CC[C@H](C)[C@H](N)C(=O)N[C@@H](Cc1ccc(O)cc1)C(=O)N[C@@H](CO)C(=O)N[C@@H](CCCCN)C(=O)N[C@@H](C)C(=O)N[C@@H](CO)C(=O)N[C@@H](CCC(=O)O)C(=O)N[C@@H](Cc1ccc(O)cc1)C(=O)N[C@@H](Cc1ccccc1)C(=O)O` [compound 320], IC50 15 nM. Against it:
- CC[C@H](C)[C@H](NC(=O)[C@@H](NC(=O)[C@@H](NC(=O)[C@H](CO)NC(=O)[C@H](Cc1ccc(O)cc1)NC(=O)[C@@H](N)CO)[C@@H](C)O)[C@@H](C)O)C(=O)N[C@@H](CC(N)=O)C(=O)N[C@@H](Cc1ccc(O)cc1)C(=O)N[C@H](C(=O)N[C@@H](Cc1ccccc1)C(=O)O)[C@@H](C)O [compound 314] — the same, 15 nM
- CC[C@H](C)[C@H](NC(=O)[C@H](CC(C)C)NC(=O)[C@H](CC(C)C)NC(=O)CNC(=O)[C@@H](NC(=O)[C@H](CCCCN)NC(=O)[C@@H]1CCCN1C(=O)[C@H](Cc1ccc(O)cc1)NC(=O)[C@@H](N)C(C)C)[C@@H](C)O)C(=O)N[C@@H](Cc1ccccc1)C(=O)O [compound 328] — 5.2-fold lower, 2.9 nM
- CC[C@H](C)[C@H](NC(=O)[C@H](CC(C)C)NC(=O)[C@H](C)NC(=O)[C@H](CCCNC(=N)N)NC(=O)[C@@H]1CCCN1C(=O)CNC(=O)[C@H](Cc1c[nH]c2ccccc12)NC(=O)[C@H](CC(C)C)NC(=O)[C@H](Cc1ccccc1)NC(=O)[C@@H](N)CCC(=O)O)C(=O)O [compound 329] — 83-fold higher, 1240 nM
- CC(C)C[C@H](NC(=O)[C@H](C)NC(=O)[C@H](CCCNC(=N)N)NC(=O)[C@@H]1CCCN1C(=O)CNC(=O)[C@H](Cc1c[nH]c2ccccc12)NC(=O)[C@H](CC(C)C)NC(=O)[C@H](Cc1ccc(O)cc1)NC(=O)[C@@H](N)CCC(=O)O)C(=O)N[C@@H](Cc1ccccc1)C(=O)O [compound 330] — 1.5-fold lower, 10 nM
- CC(C)C[C@H](NC(=O)[C@H](CC(=O)O)NC(=O)[C@@H]1CCCN1C(=O)[C@H](Cc1ccccc1)NC(=O)[C@@H](N)[C@@H](C)O)C(=O)N[C@@H](CCC(=O)O)C(=O)N[C@@H](CO)C(=O)N[C@@H](CCC(=O)O)C(=O)N[C@@H](Cc1ccccc1)C(=O)O [compound 334] — 160-fold higher, 2450 nM
- CC(C)[C@H](NC(=O)[C@@H]1CCCN1C(=O)[C@H](Cc1ccccc1)NC(=O)[C@H](Cc1ccccc1)NC(=O)[C@H](Cc1ccc(O)cc1)NC(=O)[C@H](CCC(N)=O)NC(=O)[C@H](Cc1ccc(O)cc1)NC(=O)[C@@H](N)CC(N)=O)C(=O)N[C@@H](Cc1ccccc1)C(=O)O [compound 337] — 4.4-fold lower, 3.4 nM
- CC[C@H](C)[C@H](N)C(=O)N[C@@H](Cc1ccc(O)cc1)C(=O)N[C@@H](CO)C(=O)N[C@@H](CCCCN)C(=O)N[C@@H](C)C(=O)N[C@@H](CO)C(=O)N[C@@H](CO)C(=O)N[C@@H](CO)C(=O)N[C@@H](Cc1ccccc1)C(=O)O [compound 341] — 25-fold higher, 375 nM
- CC[C@H](C)[C@H](NC(=O)[C@H](Cc1ccc(O)cc1)NC(=O)[C@@H](N)CC(C)C)C(=O)N[C@@H](Cc1ccccc1)C(=O)N[C@@H](C)C(=O)N[C@H](C(=O)N[C@@H](CS)C(=O)N[C@@H](CC(C)C)C(=O)NCC(=O)N[C@@H](CC(C)C)C(=O)O)[C@@H](C)O [compound 343] — 230-fold higher, 3430 nM
- CC[C@H](C)[C@H](N)C(=O)N[C@@H](Cc1ccc(O)cc1)C(=O)N1CCC[C@H]1C(=O)N[C@@H](CCCCN)C(=O)N[C@@H](C)C(=O)NCC(=O)N[C@@H](CC(C)C)C(=O)N[C@@H](CC(C)C)C(=O)N[C@H](C(=O)N[C@@H](Cc1ccccc1)C(=O)O)[C@@H](C)CC [compound 348] — 12-fold lower, 1.2 nM

Same assay, conditions: binding affinity (IC50) to HLA-A*2402, running text

With `CSCC[C@H](NC(=O)[C@H](CCCCN)NC(=O)[C@H](CC(N)=O)NC(=O)[C@H](CC(C)C)NC(=O)[C@H](C)NC(=O)[C@@H]1CCCN1C(=O)[C@H](CO)NC(=O)[C@H](Cc1ccc(O)cc1)NC(=O)[C@@H](N)[C@@H](C)O)C(=O)N[C@@H](Cc1ccccc1)C(=O)O` [p53.125] the IC50 was ≤ 100 nM.

Molecular target: HLA-A*0101 (Homo sapiens, UniProt P04439, A114D/A174V/A182V/D101N/D185E/E176A/E190D/L180R/Q94H/R68K/S129P/T187R/V100A/V91M/W191G)
Assay: Class I peptide-binding assay, A*0101
Details: binding affinity (IC50) to HLA-A*0101, running text

With `CSCC[C@H](NC(=O)[C@H](CCCCN)NC(=O)[C@H](CC(N)=O)NC(=O)[C@H](CC(C)C)NC(=O)[C@H](C)NC(=O)[C@@H]1CCCN1C(=O)[C@H](CO)NC(=O)[C@H](Cc1ccc(O)cc1)NC(=O)[C@@H](N)[C@@H](C)O)C(=O)N[C@@H](Cc1ccccc1)C(=O)O` [p53.125] the IC50 was ≤ 100 nM.

Tested on: B44 supertype (B*1801, B*4001, B*4002, B*4402, B*4403, B*4501)
Assay: B44 supertype cross-binding (degeneracy, number of alleles bound)
Design: species or system human
Details: number of the six B44 supertype alleles bound

Point of comparison: `CSCC[C@H](NC(=O)[C@H](CC(=O)O)NC(=O)[C@H](CC(C)C)NC(=O)[C@H](Cc1c[nH]cn1)NC(=O)[C@@H](NC(=O)[C@H](CCC(=O)O)NC(=O)[C@@H]1CCCN1)[C@@H](C)O)C(=O)O` [compound 573], Degeneracy 0. Against it:
- N=C(N)NCCC[C@H](NC(=O)[C@@H]1CCCN1C(=O)[C@H](CCCNC(=N)N)NC(=O)[C@H](CS)NC(=O)[C@H](CCC(=O)O)NC(=O)[C@@H](N)CO)C(=O)N[C@@H](Cc1ccccc1)C(=O)O [compound 565] — higher, 1
- CC(C)C[C@H](NC(=O)[C@H](CC(=O)O)NC(=O)CNC(=O)[C@H](CC(=O)O)NC(=O)[C@H](Cc1ccccc1)NC(=O)[C@@H](NC(=O)[C@H](CC(=O)O)NC(=O)[C@H](CO)NC(=O)CNC(=O)[C@H](C)NC(=O)CNC(=O)[C@H](CCC(=O)O)NC(=O)[C@@H](N)CO)C(C)C)C(=O)O [compound 568] — higher, 1
- CC(C)C[C@H](NC(=O)[C@H](Cc1ccc(O)cc1)NC(=O)[C@H](CCC(=O)O)NC(=O)[C@@H]1CCCN1C(=O)[C@H](CC(N)=O)NC(=O)[C@H](CCC(=O)O)NC(=O)[C@@H](N)C(C)C)C(=O)N[C@H](C(=O)N1CCC[C@H]1C(=O)N[C@@H](CCC(N)=O)C(=O)NCC(=O)O)[C@@H](C)O [compound 570] — higher, 1
- CC(C)C[C@H](NC(=O)[C@@H](NC(=O)[C@H](CCC(=O)O)NC(=O)[C@H](Cc1ccccc1)NC(=O)[C@@H](NC(=O)[C@H](CCC(N)=O)NC(=O)[C@H](CC(C)C)NC(=O)[C@H](CCC(N)=O)NC(=O)[C@H](CCC(=O)O)NC(=O)[C@@H]1CCCN1)C(C)C)[C@@H](C)O)C(=O)O [compound 579] — the same, 0
- CC(C)[C@H](NC(=O)[C@H](CS)NC(=O)[C@H](CCC(N)=O)NC(=O)[C@H](CC(=O)O)NC(=O)[C@H](C)NC(=O)[C@H](CCC(=O)O)NC(=O)[C@@H]1CCCN1)C(=O)N[C@@H](C)C(=O)N[C@@H](CS)C(=O)N[C@@H](C)C(=O)N[C@@H](Cc1c[nH]cn1)C(=O)N[C@@H](Cc1ccc(O)cc1)C(=O)O [compound 591] — the same, 0
